Data from PubChem BioAssay AID2265 (National Center for Advancing Translational Sciences (NCATS), 2010).
This is a selection; strong and weak results do not stand in their true shares. Results filed as inconclusive are left out. Activity calls are given as the source filed them. The call rests on the fitted dose curve; in most records, active means well fitted inhibition curve with a large enough effect; inconclusive means small, poorly fitted or top-dose-only effect; inactive means flat fitted curve, though single readings scatter.

Biological target: Luciferin 4-monooxygenase (Photuris pensylvanica) (UniProt Q27757)
Experiment: Secondary assay for Inhibitors of Human Pyruvate Kinase M2 isoform: FLuc Counterscreen
Details: Kinase-Glo firefly luciferase, luminescence, 8 min
Experimental: NIH Chemical Genomics Center [NCGC] Matthew G. Vander Heiden, M.D., Ph.D. [Harvard Medical School, 77 Avenue Louis Pasteur, Boston, MA 02115] MLPCN Grant: 1 R03 MH085679-01 NCGC Assay Overview: Luciferase (Kinase-Glo, Promega Corporation) was assayed for its ability to generate light using ATP and luciferin as substrates. The ATP concentration in the assay (10 uM) was within the linear range of enzyme activity for the assay conditions used. This assay was used as an counter screen for human pyruvate kinase M2 isoform.
NCGC Assay Protocol Summary: Four uL of substrate mix (final concentration, 50 mM imidazole pH 7.2, 50 mM KCl, 7 mM MgCl2, 10 uM ATP, 0.01% Tween 20, 0.05% BSA) was dispensed into white 1536 well plates. Twenty-three nL of compound was delivered by a pin tool and 2 uL of luciferase detection mix (Kinase-Glo, Promega)) was added. Following 8-minute incubation at ambient temperature, luminescence was measured by a ViewLux (Perkin Elmer) at 5 seconds exposure/plate. Data were normalized to the controls for basal activity (DMSO only) and 100% inhibition (40 uM SIB 1757) and curve fitting was performed using Hill equation.

| SMILES | Potency |
| --- | --- |
| Nc1ncnc2c1ncn2[C@@H]1O[C@H](COP(=O)(O)O)[C@@H](O)[C@H]1O | active: 5.17 µM |
| Nc1ncnc2c1ncn2C1OC(COP(=O)(O)O)C(O)C1O (configuration not stated) | active: 4.11 µM |
